The subject of one assay is Type 1 astrocytes. As to the kind of experiment: [3H]GABA uptake in Type 1 astrocyte cultures. The assay is classed as cell-based. The settings on record: Rattus norvegicus, read-out: IC50 for inhibition of [3H]GABA uptake, Type 1 astrocytes.
For a further assay, the target named is T1, rat GAT-2 (Rattus norvegicus, UniProt P31646).
T1 sequence (P31646 1-602): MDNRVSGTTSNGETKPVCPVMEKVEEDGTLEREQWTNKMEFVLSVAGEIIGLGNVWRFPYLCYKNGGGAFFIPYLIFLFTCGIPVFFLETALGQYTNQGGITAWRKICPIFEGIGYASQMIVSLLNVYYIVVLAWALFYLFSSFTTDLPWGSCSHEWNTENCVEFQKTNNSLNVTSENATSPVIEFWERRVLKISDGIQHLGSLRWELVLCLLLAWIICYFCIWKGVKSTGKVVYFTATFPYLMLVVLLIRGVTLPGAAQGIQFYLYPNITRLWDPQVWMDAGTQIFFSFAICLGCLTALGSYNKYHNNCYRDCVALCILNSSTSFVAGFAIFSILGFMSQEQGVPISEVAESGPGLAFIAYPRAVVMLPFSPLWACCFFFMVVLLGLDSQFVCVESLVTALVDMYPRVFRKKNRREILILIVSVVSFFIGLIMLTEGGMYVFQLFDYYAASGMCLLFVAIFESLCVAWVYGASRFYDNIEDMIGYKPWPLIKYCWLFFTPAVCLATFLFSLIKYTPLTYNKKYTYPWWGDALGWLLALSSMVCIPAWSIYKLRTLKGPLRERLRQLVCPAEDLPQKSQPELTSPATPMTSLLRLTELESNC

Another assay concerns the target T2, GAT-2 (Rattus norvegicus, UniProt P31646).
T2 construct: randomly primed GAT-2 full-length or GAT-3 truncated or full-length cDNA clones; expressed in transfected cells; host or cells: COS cells, transient, plasmid pEVJB-rB14b
T2 sequence (P31646 1-602): T1 sequence (P31646 1-602)
As to the kind of experiment: [3H]GABA uptake by COS cells transfected with GAT-2 (rB14b). The assay is classed as cell-based. The settings on record: read-out: % Inhibition of [3H]GABA uptake, GAT-2.

In a further assay the test system is rat brain aggregates. Put plainly: [3H]GABA uptake by brain aggregates. The assay is classed as cell-based. The settings on record: read-out: IC50 for inhibition of [3H]GABA uptake, rat brain aggregates, control.
A further assay has as its target T3, TAUT (Rattus norvegicus, UniProt P31643).
T3 sequence (P31643 1-621): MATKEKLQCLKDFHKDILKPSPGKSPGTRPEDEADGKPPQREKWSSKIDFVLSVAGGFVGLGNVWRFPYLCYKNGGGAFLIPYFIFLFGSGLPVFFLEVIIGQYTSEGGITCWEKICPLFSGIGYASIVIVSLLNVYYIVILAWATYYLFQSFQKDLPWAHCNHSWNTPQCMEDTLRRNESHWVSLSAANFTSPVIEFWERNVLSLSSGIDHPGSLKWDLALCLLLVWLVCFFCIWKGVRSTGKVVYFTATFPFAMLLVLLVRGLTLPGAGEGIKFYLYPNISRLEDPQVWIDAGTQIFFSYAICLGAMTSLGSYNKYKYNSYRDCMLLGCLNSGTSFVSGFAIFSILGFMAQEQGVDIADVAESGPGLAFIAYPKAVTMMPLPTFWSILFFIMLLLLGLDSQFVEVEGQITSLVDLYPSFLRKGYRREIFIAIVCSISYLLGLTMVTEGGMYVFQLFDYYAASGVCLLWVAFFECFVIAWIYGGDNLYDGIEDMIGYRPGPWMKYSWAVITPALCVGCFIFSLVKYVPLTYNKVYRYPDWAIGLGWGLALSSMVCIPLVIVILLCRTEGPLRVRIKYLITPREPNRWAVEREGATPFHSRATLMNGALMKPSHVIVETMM
Put plainly: [3H]taurine uptake, full competition curves at cloned TAUT (transient transfection, COS cells). The assay is classed as cell-based.

The target in a further assay is GAT-1 (Rattus norvegicus, UniProt P23978). As to the kind of experiment: cell-based.
In a further assay the target is T4, GAT-3 (Rattus norvegicus, UniProt P31647).
T4 sequence (P31647 1-627): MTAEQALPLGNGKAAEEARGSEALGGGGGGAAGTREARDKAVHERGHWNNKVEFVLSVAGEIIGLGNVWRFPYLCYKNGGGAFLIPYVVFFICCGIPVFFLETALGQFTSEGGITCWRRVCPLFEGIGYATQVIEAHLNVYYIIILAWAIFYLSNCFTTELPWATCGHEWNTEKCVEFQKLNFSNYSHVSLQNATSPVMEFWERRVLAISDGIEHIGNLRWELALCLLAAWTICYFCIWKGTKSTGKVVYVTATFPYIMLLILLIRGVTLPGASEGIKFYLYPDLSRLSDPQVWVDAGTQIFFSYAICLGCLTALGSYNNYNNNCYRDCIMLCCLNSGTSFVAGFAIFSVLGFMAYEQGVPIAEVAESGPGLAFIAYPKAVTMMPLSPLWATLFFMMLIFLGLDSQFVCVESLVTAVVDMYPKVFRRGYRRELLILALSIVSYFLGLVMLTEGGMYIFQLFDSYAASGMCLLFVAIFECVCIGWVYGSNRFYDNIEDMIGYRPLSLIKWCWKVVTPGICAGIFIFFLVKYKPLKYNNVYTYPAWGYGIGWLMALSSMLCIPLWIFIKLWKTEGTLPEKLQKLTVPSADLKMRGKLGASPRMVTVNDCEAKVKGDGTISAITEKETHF
As to the kind of experiment: [3H]GABA uptake by COS cells transfected with GAT-3 (rB8b or K438-rB8b). The assay is classed as cell-based. To be noted: read-out: % Inhibition of [3H]GABA uptake, GAT-3.

Another assay deals with neuronal cultures. Put plainly: [3H]GABA uptake in primary neuronal cell cultures. The assay is classed as cell-based. The settings on record: Rattus norvegicus, Neuron, read-out: IC50 for inhibition of [3H]GABA uptake, Neurons.
Another assay has as its system O-2A/Type 2 astrocytes. Put plainly: [3H]GABA uptake in O-2A/Type 2 astrocyte cultures. The assay is classed as cell-based. The settings on record: Rattus norvegicus.

Here are results for one molecule from US20030143729A1 (Synaptic Pharmaceutical Corporation, priority 1992, published 2003).

The structures appear in SMILES notation. Like-named read-outs stand apart in the source and are kept apart here.

One may read the inhibition as the change of the read-out against control, counted positive when it falls. Turning to `O=C(O)C1CCCNC1` (racemic) [nipecotic, nipecotic acid], the IC50 with Type 1 astrocytes was found to be 315 ± 100 µM; against rat GAT-2, 38 ± 4 µM; in the assay with rat brain aggregates, 7 ± 0.8 µM; at TAUT it was 2030 µM; with neuronal cultures it was 18 ± 5 µM; in the assay on O-2A/Type 2 astrocytes (read-out: IC50 for inhibition of [3H]GABA uptake, O-2A/Type 2 astrocytes), 12 ± 2 µM. Moreover, in the assay on O-2A/Type 2 astrocytes (read-out: IC50 for inhibition of [3H]GABA uptake, O-2A/Type 2 astrocytes with NNC-711), the IC50 worked out at 61 ± 20 µM. Further, the inhibition at 10 µM turned out to be 5 ± 5% on GAT-2, 51 ± 5% at GAT-1 and 12 ± 6% on GAT-3.
